Measured values from US9233903B2, “Pharmaceutical substances on the basis of mitochondria-addressed antioxidants” (Mitotech SA, priority 2009, dated 2016).
Where two headings read alike, the source gives them in different places.

Key:
HeLa cells = assay: H2O2-induced oxidative stress in cells, DCF-DA cytofluorimetry; assay type: cell-based, human; conditions: incubation for 1 to 5 hours
Experimental: To measure the level of oxidative stress stimulated by H2O2, cells were stained with fluorescent dye DCF-DA (2′,7′-dichloro-dihydrofluorescein diacetate), and the level of fluorescence of the dye was measured with a cytofluorimeter.
Estimates were made on the basis of seven experiments. Data were estimated with respect to a group of the control cells lying on the diagram in the area of low DCF-DA fluorescence (50% of the population), this group of cells was taken as 100% and indicators for every action were estimated relative to this group.

gramicidin channels [1] = assay: Protection of gramicidin channels in bilayer membrane, damage by FeSO4, ascorbate and tert-butyl hydroperoxide; assay type: biochemical; conditions: FeSO4, ascorbate, tert-butyl hydroperoxide; FIG. 3B
Source text: A method was developed which allows the study of the antioxidant activity of compounds in a simple system consisting of a bilayer membrane, […]). […]

[2] = FIG. 1B
[3] = Penetrating ability on artificial black (bilayer phospholipid) membranes, membrane potential; assay type: physicochemical; conditions: comparison between compounds
Source text: To test the penetrating ability of mitochondria-addressed compounds of structure (I), a method is used based on the ability of ions to penetrate through the phospholipid membrane bilayer moving along the concentration gradient. […] If a charged substance can penetrate through the bilayer membrane, its rapid diffusion out of the chamber having a high concentration of the substance, to the chamber having a low concentration of the substance, occurs, and thus a membrane potential difference is created. For ions which are carrying one charge and able to easily penetrate through the membrane, a 10-fold concentration gradient allows for creation of a potential of 60 mV (according to the Nernst equation). This method was used in various studies of the ability of ions to pass through the lipid bilayer of the membrane.

[4] = 20 mM MOPS-KOH, pH=7.6; FIG. 1A
[5] = test system: HeLa and normal human diploid fibroblasts; assay: Protection of cells against H2O2-induced death (apoptosis), Hoechst/PI counting; assay type: cell-based
gramicidin channels [6] = assay: Protection of gramicidin channels in bilayer membrane, damage by photoactivated phthalocyanine; assay type: biochemical; conditions: photoactivation of phthalocyanine; FIG. 3A
Source text: A method was developed which allows the study of the antioxidant activity of compounds in a simple system consisting of a bilayer membrane, a conducting protein gramicidin and a photosensitizer (Mito Tracker Red, Invitrogen, Carlsbad, Calif.), thrice sulfonated aluminum phthalocyanine or zinc phthalocyanine). The method uses the ability of reactive oxygen species generated by photoactivation of the photosensitizer molecules to damage gramicidin channels, resulting in a sharp decrease in the conducting ability of the bilayer membrane.

[7] = test system: mitochondrial respiratory chain

Compound: CC1=C(C)C(=O)C(CCCCCCCCCC[P+](c2ccccc2)(c2ccccc2)c2ccccc2)=CC1=O [SkQ1, [10-(4,5-dimethyl-3,6-dioxo-cyclohexa-1,4-dien-1-yl)decyl]-triphenylphosphonium bromide]
- effect on H2O2-induced oxidative stress in cells (HeLa cells): did not prevent
- antioxidant efficiency, protection of gramicidin channels (gramicidin channels [1]): most efficient
- oxidation by superoxide formed in the reaction of xanthine oxidase with xanthine [2]: much more effective than that of MitoQ
- penetrating ability [3]: less penetrating abilities compared to SkQ3 or SkQR1
- resistance of the reduced (quinol) form to oxidation by atmospheric oxygen [4]: more resistant to oxidation by atmospheric oxygen than MitoQ
- protection of cells against death, comparison ([5]; H2O2 300 μM, 7 days, FIG. 7): much more effectively than MitoQ
- concentration at which protective effect against H2O2-induced cell death is exerted ([5]; H2O2 300 μM, incubation for 7 days, FIG. 7): 0.2 nM
- resistance of cells to H2O2 ([5]; incubation with the cells for 5 to 7 days): increase resistance of cells to H2O2
- prevention of fall in membrane conductance (gramicidin channels) (gramicidin channels [6]): most efficient
- Average life span M ± m (Ceriodaphnia affinis; 0.55 nM): 33.55 ± 6.21
- Average life span, % of control (Ceriodaphnia affinis; 0.55 nM): 166.09%
- LT25% fixed time of death (Ceriodaphnia affinis; 0.55 nM): 22 days
- LT50% fixed time of death (Ceriodaphnia affinis; 0.55 nM): 36 days
- LT75% fixed time of death (Ceriodaphnia affinis; 0.55 nM): 45 days
- survival of the crustaceans versus control (Ceriodaphnia affinis; 0.55 nM): higher than control
- time of death in 50% relative to control (Ceriodaphnia affinis; 0.55 nM): 2 times
- Average life span M ± m (Ceriodaphnia affinis; 5.5 nM): 31.25 ± 8.11
- Average life span, % of control (Ceriodaphnia affinis; 5.5 nM): 154.7%
- LT25% fixed time of death (Ceriodaphnia affinis; 5.5 nM): 18 days
- LT50% fixed time of death (Ceriodaphnia affinis; 5.5 nM): 26 days
- LT75% fixed time of death (Ceriodaphnia affinis; 5.5 nM): 46 days
- survival of the crustaceans versus control (Ceriodaphnia affinis; 5.5 nM): higher than control
- time of death in 50% relative to control (Ceriodaphnia affinis; 5.5 nM): 1.4 times
- Average life span M ± m (Ceriodaphnia affinis; 55 nM): 12.85 ± 2.79
- Average life span, % of control (Ceriodaphnia affinis; 55 nM): 63.61%
- LT25% fixed time of death (Ceriodaphnia affinis; 55 nM): 9 days
- LT50% fixed time of death (Ceriodaphnia affinis; 55 nM): 12 days
- LT75% fixed time of death (Ceriodaphnia affinis; 55 nM): 17 days
- survival of the crustaceans versus control (Ceriodaphnia affinis; 55 nM): lower than control
- ability to be reduced by the mitochondrial respiratory chain ([7]; complex I (glutamate and malate) and complex II (succinate), FIG. 5A): can be reduced by the mitochondrial respiratory chain
- oxidation with complex III ([7]; malonate, rotenone, FIG. 5B): much slower than its reduction with complex I and complex II
